Assay results from ChEMBL document CHEMBL1142823, “Analysis of structure-activity relationships for the 'B-region' of N-(4-t-butylbenzyl)-N'-[4-(methylsulfonylamino)benzyl]-thiourea analogues as TRPV1 antagonists” (Bioorg Med Chem Lett, 2005).

By UniProt entry, the sequences of proteins in these tests, tags left out.
UniProt O35433, whole entry: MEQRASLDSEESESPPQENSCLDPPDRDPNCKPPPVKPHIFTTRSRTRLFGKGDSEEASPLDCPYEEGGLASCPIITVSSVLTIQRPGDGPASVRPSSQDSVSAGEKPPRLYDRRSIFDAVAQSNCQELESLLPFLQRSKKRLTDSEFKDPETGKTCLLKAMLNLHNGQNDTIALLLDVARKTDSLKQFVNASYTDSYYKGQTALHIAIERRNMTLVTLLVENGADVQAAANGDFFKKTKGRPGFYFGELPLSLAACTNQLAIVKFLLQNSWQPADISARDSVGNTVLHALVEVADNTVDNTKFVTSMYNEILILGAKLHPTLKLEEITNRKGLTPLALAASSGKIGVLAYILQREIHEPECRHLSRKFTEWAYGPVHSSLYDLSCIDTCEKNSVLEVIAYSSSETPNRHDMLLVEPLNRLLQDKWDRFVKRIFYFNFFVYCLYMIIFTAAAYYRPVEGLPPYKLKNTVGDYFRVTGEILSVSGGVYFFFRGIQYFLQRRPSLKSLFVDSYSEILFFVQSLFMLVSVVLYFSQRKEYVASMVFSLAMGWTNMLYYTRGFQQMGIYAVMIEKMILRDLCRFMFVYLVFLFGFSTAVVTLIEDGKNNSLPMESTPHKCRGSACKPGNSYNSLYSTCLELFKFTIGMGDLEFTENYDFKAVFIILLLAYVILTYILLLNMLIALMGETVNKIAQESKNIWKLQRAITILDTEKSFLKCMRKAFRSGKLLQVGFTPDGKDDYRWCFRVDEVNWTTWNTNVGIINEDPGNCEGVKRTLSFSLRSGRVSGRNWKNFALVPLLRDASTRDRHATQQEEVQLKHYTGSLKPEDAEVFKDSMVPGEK

Target: Transient receptor potential cation channel subfamily V member 1 (Rattus norvegicus, UniProt O35433)
Assay: In vitro inhibition of [3H]RTX binding to rat TRPV1 expressed in CHO cells
Type: cell-based

Row | Compound | Ki
1 | CC(C)(C)c1ccc(CNC(=S)NNc2ccc(NS(C)(=O)=O)cc2)cc1 | 12100 nM
2 | CC(C)(C)c1ccc(CN(O)C(=S)NCc2ccc(NS(C)(=O)=O)c([N+](=O)[O-])c2)cc1 | 1330 nM
3 | CC(C)(C)c1ccc(CNC(=S)NCc2ccc(NS(C)(=O)=O)cc2)cc1 | 63 nM
